## Binding of CDR-mutated scFvs to a peptide of the spike HR2 region

From the AlphaSeq antibody data of Engelhart et al. 2022 (doi:10.1038/s41597-022-01779-4), copy in the FLAb collection.

Target: peptide PDVDLGDISGINAS, taken from heptad repeat 2 (HR2) of SARS-CoV-2 spike.

Each scFv is VH, a (GGGGS)3 linker, VL, as in the parent Ab-14, and differs from it in the CDRs of the light chain only.
VH: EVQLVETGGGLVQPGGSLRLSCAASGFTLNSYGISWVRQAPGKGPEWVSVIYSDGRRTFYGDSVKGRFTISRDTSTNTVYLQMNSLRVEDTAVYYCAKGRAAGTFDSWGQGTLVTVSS
VL: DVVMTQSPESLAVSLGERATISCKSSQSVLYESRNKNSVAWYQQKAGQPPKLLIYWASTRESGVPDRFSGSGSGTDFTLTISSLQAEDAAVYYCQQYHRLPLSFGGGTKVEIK

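Phage display of a naive human antibody library on the peptide gave the parent. Library AAYL50 holds single substitutions and randomly drawn double and triple substitutions in the CDRs. The scFvs were displayed on barcoded MATa yeast, the peptide on MATalpha yeast. Mating (16 h, 30 °C) was followed by selection of diploids and sequencing of their barcodes. The ratio of observed to expected reads was calibrated, replicate by replicate, on BCL2-family standards whose Kd was known from biolayer interferometry. Each pool was mated in three replicate cultures.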

Positions count from residue 1 of the parent VL; S62Y puts Y in place of S. This list gathers variants with a substitution at Y97 (VL, numbered from residue 1). Kd is apparent (estimated from mating counts) and averaged on the log scale over replicates with a signal. Smaller is tighter. Where no diploid with the target was found in any replicate, the entry reads "no signal": below detection, most likely a poor binder, though not proof of it.

| changes | Kd | seen in | empty controls |
|---|---|---|---|
| S62Y+Y97E+P101V | no signal | 0 of 3 | 0 of 9 |
| K24V+Y97M | no signal | 0 of 3 | 2 of 9 |
| V39C+A57P+Y97N | no signal | 0 of 3 | 0 of 9 |
| S25N+Y97L+R99G | 540 nM | 3 of 3 | 4 of 9 |
| K24E+S33N+Y97G | no signal | 0 of 3 | 0 of 9 |
| S26V+W56M+Y97T | 42 nM | 3 of 3 | 2 of 9 |
| A40R+A57K+Y97P | 13 µM | 2 of 3 | 3 of 9 |
| S25L+A40K+Y97L | 25 µM | 1 of 3 | 2 of 9 |
| A40G+Y97K | 2.1 µM | 2 of 3 | 2 of 9 |
| Y97K | no signal | 0 of 3 | 0 of 9 |
| A40T+E61R+Y97C | 59 µM | 2 of 3 | 1 of 9 |
| S58W+Y97W+L100R | no signal | 0 of 3 | 1 of 9 |
| L30R+Q96W+Y97E | no signal | 0 of 3 | 0 of 9 |
| A57M+Q95T+Y97M | 20 µM | 1 of 3 | 0 of 9 |
| N37V+A40N+Y97F | 89 µM | 1 of 3 | 5 of 9 |
| A57Y+R60G+Y97L | 250 µM | 1 of 3 | 0 of 9 |
| S28P+W56C+Y97A | 39 nM | 3 of 3 | 0 of 9 |
| S33T+Y97R+H98Y | 3.2 µM | 1 of 3 | 1 of 9 |
| E32G+R34I+Y97L | 380 µM | 1 of 3 | 2 of 9 |
| A57S+Y97W+P101V | no signal | 0 of 3 | 1 of 9 |
| S26F+R34A+Y97V | 870 nM | 1 of 3 | 2 of 9 |

Excerpt, the final 2 entries:

{"changes": "A57S+Y97W+P101V", "Kd": "no signal", "seen in": "0 of 3", "empty controls": "1 of 9"}
{"changes": "S26F+R34A+Y97V", "Kd": "870 nM", "seen in": "1 of 3", "empty controls": "2 of 9"}

Empty control strains, which show no peptide, gave a signal in 18% of pairings with library AAYL50; the median was 15 µM and 95% of these signals were weaker than 970 nM. No background was subtracted. The control count says in how many pairings with the empty strains this scFv gave a signal.